Antibody variant affinities, Ab-14 light chain, assay 1

Data: MIT Lincoln Laboratory AlphaSeq set, Engelhart et al. 2022, doi:10.1038/s41597-022-01779-4, as distributed in FLAb.

Binding partner: SARS-CoV-2 spike HR2 peptide, sequence PDVDLGDISGINAS.

Each scFv is VH, a 15-residue (Gly4Ser)3 linker, VL, as in the parent Ab-14, and differs from it in the CDRs of the light chain only.
VH: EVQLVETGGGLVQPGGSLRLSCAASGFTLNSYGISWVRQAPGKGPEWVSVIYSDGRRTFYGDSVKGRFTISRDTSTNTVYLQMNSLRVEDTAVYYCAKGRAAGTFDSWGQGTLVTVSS
VL: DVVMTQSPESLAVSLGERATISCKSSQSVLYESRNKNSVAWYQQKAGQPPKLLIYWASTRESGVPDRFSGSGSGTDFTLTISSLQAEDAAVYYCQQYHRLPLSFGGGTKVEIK

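AAYL50 was designed without a model: most single CDR substitutions and a random sample of double and triple ones. In AlphaSeq, yeast of one mating type display the scFv and yeast of the other type display the target. Pairs that bind mate more often; barcode pairs of the diploids are counted by sequencing. The ratio of observed to expected reads was calibrated, replicate by replicate, on BCL2-family standards whose Kd was known from biolayer interferometry. Each pool was mated in three replicate cultures.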

Positions count from residue 1 of the parent VL; V29K puts K in place of V.
Kd is apparent (estimated from mating counts) and averaged on the log scale over replicates with a signal. Smaller is tighter.
An entry "no signal" has no value in the source: the pair was not observed among the diploids in any replicate. This suggests poor binding but is not conclusive.
Entries are sorted by rising average, undetected variants last.

changes,Kd,detected,empty controls
V29K W56Q Q96A,710 pM,3/3,2/9
S25F R34S S62N,830 pM,3/3,2/9
S25W R34D W56T,2.7 nM,3/3,1/9
S25M S58G R99S,3.2 nM,3/3,1/9
E32S K36S A57G,4.1 nM,3/3,5/9
N35H W56M T59C,6.0 nM,3/3,0/9
W56Q Q96I R99F,7.5 nM,3/3,2/9
N37H Q96N H98R,8.5 nM,3/3,1/9
W56M T59A,9.7 nM,3/3,5/9
S28T Y31T S33V,11 nM,3/3,4/9
S26Q K36V E61D,11 nM,3/3,1/9
S25K S38A P101W,19 nM,3/3,4/9
K36Y W56H E61W,20 nM,3/3,2/9
K36A Q96H,48 nM,3/3,1/9
L30V Y97N,52 nM,3/3,2/9
R34Y R60P S62N,75 nM,3/3,5/9
K36Q S38T W56R,81 nM,3/3,3/9
S26C K36R N37D,85 nM,2/3,0/9
S26A S28H S62M,94 nM,3/3,0/9
S26R S28F,100 nM,2/3,3/9
L30M N37Y S103W,130 nM,3/3,4/9
K36H S62Q R99A,140 nM,3/3,0/9
W56Q T59K Y97I,150 nM,3/3,4/9
R60L L100G P101M,150 nM,3/3,3/9
S25H S26N S62C,240 nM,3/3,0/9
S33W N37R L100T,340 nM,3/3,2/9
S28F A57D,620 nM,3/3,2/9
V29Y R60L,1.1 µM,3/3,3/9
V29S N35K Q96R,1.5 µM,1/3,2/9
E32G R60M Q95D,2.5 µM,3/3,3/9
S58K R60C R99P,2.8 µM,1/3,0/9
S26M R34T S38Y,2.9 µM,2/3,1/9
R34V V39H R60P,4.2 µM,1/3,4/9
A57V L102N,11 µM,1/3,1/9
N35P Q96C P101T,20 µM,1/3,2/9
L30N R60A L102T,21 µM,2/3,1/9
S26K A40D P101A,44 µM,2/3,5/9
A40S R60H R99T,no signal,0/3,1/9
S25P Q95P L100A,no signal,0/3,1/9
V39N T59S Q95R,no signal,0/3,1/9
S25T V29R Q95D,no signal,0/3,1/9
K24P L30C A40H,no signal,0/3,2/9
K24E S28W A57R,no signal,0/3,0/9
W56C E61D Q95Y,no signal,0/3,3/9
N37V R60C S103N,no signal,0/3,0/9
S26V K36N A40I,no signal,0/3,1/9
K24N V39H T59K,no signal,0/3,3/9
S33E N37R Q95G,no signal,0/3,1/9
S25D N37W Q96P,no signal,0/3,1/9
T59H Q96R,no signal,0/3,0/9
L30A A57L Y97I,no signal,0/3,1/9

The 4 strongest on average among those seen in every replicate, once more:

{"changes": "V29K W56Q Q96A", "Kd": "710 pM", "detected": "3/3", "empty controls": "2/9"}
{"changes": "S25F R34S S62N", "Kd": "830 pM", "detected": "3/3", "empty controls": "2/9"}
{"changes": "S25W R34D W56T", "Kd": "2.7 nM", "detected": "3/3", "empty controls": "1/9"}
{"changes": "S25M S58G R99S", "Kd": "3.2 nM", "detected": "3/3", "empty controls": "1/9"}

In this assay the parent's reference entry averaged 4.4 nM; its copy inside this library read 48 nM.
As a blank, each scFv also met three strains without target: over library AAYL50, 18% of these pairings were detected, typically at 15 µM and seldom below 970 nM. Also given: how often the same scFv was detected with the empty control strains.